The source of these data is PMC10113159, “Phase separation properties of RPA combine high-affinity ssDNA binding with dynamic condensate functions at telomeres” (Nature Structural & Molecular Biology, 2023).

The target in the assay is T1, purified trimeric human RPA complex (WT) (human, UniProt P27694 1-616; P15927 1-270; P35244 1-121).
T1 construct: RPA1 (RPA70), human, untagged, from p11d-tRPA(123); RPA2 (RPA32), human, untagged, from p11d-tRPA(123); also called tRPA; RPA WT; source: E. coli BL21, purified (HiTrap Blue, desalting, HiTrap Q); copies: + +
The experiment in a line: partitioning of a labelled protein into preformed droplets (time-lapse microscopy); 1 µM Cy3-labelled protein added to preformed droplets of unlabelled trimeric RPA (7.5 µM, 5% PEG-8000, diluted Sørensen buffer pH 7.6, 150 mM KCl, 25 µM EDTA, 1 mM DTT, room temperature); Cy3 label alone as negative control. The note with it: both partners purified.

B1: purified human RAD52 (natural protein, UniProt P43351 1-418, looked up)
chain: MSGTEEAILGGRDSHPAAGGGSVLCFGQCQYTAEEYQAIQKALRQRLGPEYISSRMAGGGQKVCYIEGHRVINLANEMFGYNGWAHSITQQNVDFVDLNNGKFYVGVCAFVRVQLKDGSYHEDVGYGVSEGLKSKALSLEKARKEAVTDGLKRALRSFGNALGNCILDKDYLRSLNKLPRQLPLEVDLTKAKRQDLEPSVEEARYNSCRPNMALGHPQLQQVTSPSRPSHAVIPADQDCSSRSLSSSAVESEATHQRKLRQKQLQQQFRERMEKQQVRVSTPSAEKSEAAPPAPPVTHSTPVTVSEPLLEKDFLAGVTQELIKTLEDNSEKWAVTPDAGDGVVKPSSRADPAQTSDTLALNNQMVTQNRTPHSVCHQKPQAKSGSWDLQTYSADQRTTGNWESHRKSQDMKKRKYDPS
modifications: Sulfo-Cyanine3 maleimide label (site not stated)
notes: RAD52, human, codon-optimized for E. coli, from pMALT-His-MBP-PP-hRAD52co; MBP-tag cleaved by PreScission protease; also called Cy3-labeled purified RAD52; source: E. coli, purified (amylose resin, HiTrap Heparin, NiNTA to remove uncleaved protein); not shown: His-tag, N-terminal, cleaved; MBP, N-terminal, cleaved
With B1, the binding result is listed as “binds”.
